Assay results reported in patent US20060257489A1, “Fine particles, method and device for preparation thereof, and agent for parenteral injection and method for production thereof” (priority 2003, published 2006).

Test: absorbance characteristic before and after laser beam irradiation (photochemical reaction / degeneration)
Type: physicochemical
Conditions: saturated water solution, 355 nm (YAG triple higher harmonics)
Description: The absorbance characteristic of the solution was measured by using a general-purpose spectrophotometer (HITACHI U-3500). […] The optical path length was set to 10 mm for the measurement.

## CCCC(=O)O[C@]1(C(=O)CCl)[C@H](C)C[C@@H]2[C@@H]3CCC4=CC(=O)C=C[C@]4(C)[C@]3(F)C(=O)C[C@@]21C [clobetasone butyrate]
  variation of the absorbance characteristic before and after light irradiation: no variation
